Assay outcomes (PubChem BioAssay)
HCMV UL50-53 inh: inhibitors of HCMV UL50-UL53 interaction, biochemical, HTRF; normalized percent inhibition; AID 1918969, 2023; 190,000 tested, 0.15% active; inhibition, % (test concentration not listed); in the data active means inhibition above about 27%, passing the limit was not always enough
GIV Gai3 FP: inhibitors of GIV GBA-motif binding to rat Galpha-i3; P08753; Galpha-i3/FITC-GIV peptide fluorescence polarization, 90 min; hits give low values; scaled: aluminum fluoride 0%, vehicle 100%; percent of control (FP), % (test concentration not listed); actives 0.42% (n = 210,000); AID 1224905;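 active = replicate mean at 85% of control or lower, very high polarization wells dropped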;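 also: wells of about 15 µL received 100 nL stock; the first replicate is given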
GIV Gai FP conf: inhibitors of GIV peptide binding to Galpha-i3, confirmation, biochemical, fluorescence polarization, FITC-GIV peptide, rat Galphai3 | shares compounds with GIV Gai3 FP | fluorescence polarization, mP at 100 µM | active compounds read low | 580 tested, 38% active;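 active means inhibition score of 15 or more, meaning 100 minus mean polarization as percent of control over three replicates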;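 further: lower mP means peptide displaced from Galphai3 so more inhibition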
GIV Gai AS conf: inhibitors of GIV binding to Galpha-i3, confirmation, orthogonal assay for GIV-Galpha-i inhibitor project, biochemical, AlphaScreen, His-GIV, GST-Galphai3; 580 tested, 39% active; AID 1259351, 2017; AlphaScreen counts at 100 µM; shares compounds with GIV Gai3 FP; purified proteins, 90 min; active compounds read low;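 active means inhibition score at or above a set limit, where the score is 100 minus the three-replicate mean percent of control signal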
An asterisk follows results filed as active; x = not tested or not shown. Many of the other results were omitted from the sample, so hits are more common in it than they were.

Preview (four entries):
SMILES | HCMV UL50-53 inh | GIV Gai3 FP | GIV Gai FP conf | GIV Gai AS conf
Cc1ccc(-n2c(/C=C/c3c(C)n(C)c4ccccc34)nc3ccccc3c2=O)cc1 | -24.5 | 88.2 | 76 | 36423
Cn1cc(/C=C/c2nc3ccccc3c(=O)n2-c2ccc([N+](=O)[O-])cc2)c2ccccc21 | -19.8 | 102.2 | x | x
CCOC(=O)C1=C(C)NC2=C(C(=O)C(C(=O)OCC)C(c3cccc(OC)c3)C2)C1c1ccc(C)cc1 (configuration not stated) | x | 95.2 | x | x
COc1ccc(-c2cc(-c3ccccc3)c(C#N)c(SCS(=O)Cc3ccccc3)n2)cc1 (configuration not stated) | x | 101.6 | x | x

Main list, repeating the preview:
SMILES | HCMV UL50-53 inh | GIV Gai3 FP | GIV Gai FP conf | GIV Gai AS conf
Cc1ccc(-n2c(/C=C/c3c(C)n(C)c4ccccc34)nc3ccccc3c2=O)cc1 | -24.5 | 88.2 | 76 | 36423
Cn1cc(/C=C/c2nc3ccccc3c(=O)n2-c2ccc([N+](=O)[O-])cc2)c2ccccc21 | -19.8 | 102.2 | x | x
CCOC(=O)C1=C(C)NC2=C(C(=O)C(C(=O)OCC)C(c3cccc(OC)c3)C2)C1c1ccc(C)cc1 (configuration not stated) | x | 95.2 | x | x
COc1ccc(-c2cc(-c3ccccc3)c(C#N)c(SCS(=O)Cc3ccccc3)n2)cc1 (configuration not stated) | x | 101.6 | x | x
CCN(CC)c1ccc(N)c(C)c1 | -64.2 | 41.3* | 73.8 | 1482*
CCN(CC)c1ccc(NC(C)=O)c(C)c1 | -13.3 | 101.9 | x | x
O=C(O)CN1CC(=O)NC1=O | -1.6 | 99.0 | x | x
CC1(C)C=C(O)C(C2(O)C(=O)c3ccccc3C2=O)C(=O)C1 (configuration not stated) | 63.0 | x | x | x
CC1(C)CC(=O)C(C2(O)C(=O)c3ccccc3C2=O)C(=O)C1 | 81.5* | 65.5* | 58.2* | 44260
O=C(Cc1ccccc1Cl)NC1(O)C(=O)c2ccccc2C1=O | 31.1 | 69.8* | 59.1 | 49874
CN1CCN(NC(=O)Cc2ccccc2Cl)CC1 | -2.0 | 105.6 | x | x
Cc1ccc(S(=O)(=O)NC2CC3CCC2(C)C3(C)C)cc1 (configuration not stated) | 23.6 | 96.3 | x | x
Nc1ccc2c(c1)C(=O)N(CCO)C2=O | -37.7 | 89.6 | 63.4 | 44198
Nc1ccc2c(c1)C(=O)N(CCCCN1C(=O)c3ccc(N)cc3C1=O)C2=O | -26.9 | 108.6 | x | x
CCOC(=O)C1CCN(c2nc(C)nc3sc4c(c23)CCCC4)CC1 | x | 112.3 | x | x
COn1c2c(c3c4nonc4ccc31)CCCC2 | -2.1 | 101.5 | x | x
On1c2c(c3c4nonc4ccc31)CCCC2 | 55.7 | 49.7* | 41.7* | 10129*
CC(C)(C)C(=O)C1=C(O)C(=O)N(Cc2ccccc2)C1c1cccnc1 (configuration not stated) | -4.0 | 102.8 | x | x
CCCc1cc(C(=O)OC)c(NC(=O)C2CCC2)s1 | 2.4 | 105.6 | x | x
Cc1ccccc1-c1nn2c(=O)cc(N3CCN(C(=O)Nc4ccc(Cl)cc4)CC3)nc2s1 | 12.0 | 101.5 | x | x
Cc1ccc(NC(=O)N2CCN(c3cc(=O)n4nc(-c5ccccc5C)sc4n3)CC2)cc1F | -11.4 | 83.8* | 79.9 | 26514
c1cc(CNC2CCCCC2)co1 | -17.4 | 99.9 | x | x
CCOc1cccc(=[O+]CC)c2c(C)oc(C)c12 | x | 68.1* | 44.2* | 2733*
CCOc1cccc(=O)c2c(C)oc(C)c12 | -56.8 | 92.0 | x | x
NC(=O)COc1ccc(Cl)cc1Cl | -13.2 | x | x | x
CCCCN(Cc1nnc(-c2ccccc2)o1)c1ccccc1 | -10.1 | 103.0 | x | x
N#Cc1c(/N=C/c2ccc(Cl)cc2)oc(-c2ccccc2)c1-c1ccccc1 | x | 109.1 | x | x
N#Cc1c(/N=C/c2ccc3c(c2)OCO3)oc(-c2ccccc2)c1-c1ccccc1 | 6.9 | 83.6* | 74.2 | 31432
N#CC1(C#N)[C@H](c2ccccc2)[C@@H](C(=O)c2ccccc2)N2C=Cc3ccccc3[C@@H]21 | x | 110.6 | x | x
Fc1ccc(CN2CCc3nc(N4CCN(c5ccccc5F)CC4)ncc3C2)c(F)c1 | x | 104.5 | x | x
O=C1CCCc2nc(N3CCN(c4ccccc4F)CC3)ncc21 | -27.9 | 82.3* | 68.1 | 44943
COc1ccc(/C=C2\CN(C)CC3=C2OC(N)=C(C#N)C3c2ccc(OC)cc2)cc1 (configuration not stated) | x | 119.4 | x | x
CCOC(=O)C1=C(C)N=c2s/c(=C\c3cc([N+](=O)[O-])ccc3N3CCOCC3)c(=O)n2C1c1ccc(F)cc1 (configuration not stated) | -18.1 | 73.9* | 63.7 | 55281
CCOC(=O)C1=C(C)N=c2s/c(=C\c3cc([N+](=O)[O-])ccc3N3CCOCC3)c(=O)n2C1c1ccc(OC)cc1 (configuration not stated) | -3.4 | 104.2 | x | x
CC1(C)CC2(CCCN(CCC(O)(c3ccccc3)c3ccccc3)C2)CCO1 (configuration not stated) | -2.3 | x | x | x
CC1(C)CC2(CCCN(C(=S)Nc3ccccc3)C2)CCO1 (configuration not stated) | x | 90.1 | 67.8 | 33599
COc1cc(/C=N/c2c(-c3ccc(O)c(OC)c3)nc3ccccn23)ccc1O | -50.8 | x | x | x
COc1cc(-c2nc3ccccn3c2N)ccc1O | 93.9* | 24.0* | 50.7 | 18629*
O=C(Nc1ccc(F)cc1)C1CC(=O)N(Cc2ccccc2)C(=Nc2ccccc2)S1 (configuration not stated) | x | 100.1 | x | x
O=c1c2ccccc2c2nc3c(=O)c4ccccc4c3nc12 | -36.5 | 103.2 | x | x
O=c1c(=NO)c(=O)c2ccccc12 | 61.8 | 54.6* | 46.7* | 13907*
CCN(CC)c1ccc2cc(S(=O)(=O)c3ccc(F)c(Cl)c3)c(=O)oc2c1 | -0.8 | 56.2* | 70.6 | 47488
CCN(CC)c1ccc2ccc(=O)oc2c1 | -92.7 | 136.9 | x | x
Cc1ccc(NC(=O)/C(C#N)=C\c2ccc(-c3ccc(Cl)cc3)o2)c(C)c1 | -51.0 | 106.2 | x | x
CCOC(=O)c1ccccc1NC(=O)/C(C#N)=C/c1ccc(-c2ccc(Cl)cc2)o1 | -18.6 | 75.5* | 31.3* | 11443*
N#C/C(=C\c1ccc(-c2cc(Cl)ccc2Cl)o1)C(=O)Nc1ccccc1C(=O)O | -74.3 | 113.4 | x | x
N#C/C(=C/c1ccc(-c2ccc(S(N)(=O)=O)cc2)o1)C(=O)Nc1cc(Cl)ccc1Cl | -15.3 | 75.4* | 79.8 | 30693
CC1=NN(C(=O)c2ccccc2)C(O)(c2ccc(Cl)cc2)C1 (configuration not stated) | x | 104.8 | x | x

Arranged by the number under GIV Gai FP conf (descending): some entries from above.
| compound | GIV Gai3 FP | GIV Gai FP conf | GIV Gai AS conf |
| --- | --- | --- | --- |
| N#C/C(=C/c1ccc(-c2ccc(S(N)(=O)=O)cc2)o1)C(=O)Nc1cc(Cl)ccc1Cl | 75.4* | 79.8 | 30693 |
| CCN(CC)c1ccc2cc(S(=O)(=O)c3ccc(F)c(Cl)c3)c(=O)oc2c1 | 56.2* | 70.6 | 47488 |
| O=c1c(=NO)c(=O)c2ccccc12 | 54.6* | 46.7* | 13907* |

Further results.
SMILES | HCMV UL50-53 inh | GIV Gai3 FP | GIV Gai FP conf | GIV Gai AS conf
CN(C)c1nc(N)ncc1-c1ccccc1 | -16.2 | 108.1 | x | x
Cc1nc(N2CCN(C)CC2)c2c(C)c(C(=O)Nc3cccc(Cl)c3)sc2n1 | x | 94.3 | 65.3 | 54788
COc1ccc(Cl)cc1NC(=O)c1sc2nc(C)nc(N3CCN(C)CC3)c2c1C | x | 97.0 | x | x
CC(C)(C)C(=O)[C@@H]1[C@H]2C3COC(O3)C(=O)[C@@H]2[C@H]2C=Cc3ccccc3N21 (some centres not stated) | x | 86.9 | x | x
O=c1[nH]c(NCCO)c(I)c(=O)[nH]1 | 67.2* | 57.4* | 42.7* | 2885*
Cc1[nH]c(=O)[nH]c(=O)c1S(=O)(=O)NCCO | -10.4 | 103.1 | x | x
CCN(CC)C(=O)c1cc(-c2ccco2)on1 | -3.4 | 97.8 | x | x
C=CCN(C(=O)c1c2c(nc3ccccc13)C(=O)N(C1CCCCC1)C2)c1ccccc1 | -50.4 | 101.8 | x | x
Cn1c(=O)cc2c3c(c(Nc4ccccc4)ccc31)C(=O)c1ccccc1-2 | x | 100.8 | x | x
CC(=O)Nc1ccc2c3c(cc(=O)n2C)-c2ccccc2C(=O)c13 | x | 84.6* | 68.8 | 46281
